Our source for the activation values is PubChem BioAssay AID449763 (Sanford-Burnham Center for Chemical Genomics, 2010).

The list shows a part of the results, in another mix than the full data. Active and inactive are the calls of the source.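 The calls were made as follows: active = at 10 µM dose, activation of 40% or more, normalized to positive control; inactive = the rest.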

This assay is described as follows: activators of apoptotic CHOP UPR arm, primary screen, cell-based, CHO-CHOP luciferase reporter, luminescence, uHTS (AID 449763).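 Also: 100% = tunicamycin at 10 µg/mL and 0% = DMSO alone.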 The settings on record: at 10 µM, stronger effect = higher value, percent of tunicamycin response over DMSO baseline. An outline of the steps: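 Evaluation: % reporter activation, DMSO baseline versus tunicamycin full activation; System: CHO-CHOP luciferase reporter cell line; Input: 500 cells/well; Incubation: 6 h compound treatment, 37 °C; Measured by: Steady-Glo luciferase luminescence; Dosing: one dose, 10 µM in 0.5% DMSO; Buffer or medium: F12 medium, 10% FBS; Benchmarks: positive tunicamycin 10 µg/mL, negative DMSO alone.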
Turning to `O=C(NCC1(N2CCCCC2)CCCCC1)c1ccc(OC(F)F)cc1`, the activation was inactive: 0.679%.

As for `CCN1CCC(Nc2ccc(Cl)cc2)CC1`, the activation is inactive: -0.467%.

For the molecule `N#CC1(Nc2ccccc2)CCN(CCc2ccccc2)CC1`, the activation is inactive: -1.73%.

In the case of `CSc1ccc(C(=O)NCC2(N3CCOCC3)CCCCC2)cc1`, the activation is inactive: 2.51%.

On to `O=C(NCC1(N2CCCCC2)CCCCC1)c1cccc([N+](=O)[O-])c1`, for which the activation was inactive: 1.53%.

As for `O=C(NCC1(N2CCCCC2)CCCCC1)c1cccc(C(F)(F)F)c1`, the activation is inactive: -0.593%.

For the molecule `COc1cc(C(=O)NCC2(N3CCCCC3)CCCCC2)ccc1OC(F)F`, the activation was inactive: 2.99%.

Take `O=C(NCC1(N2CCOCC2)CCCCC1)c1cc(=O)[nH]c2ccccc12`: the activation was inactive: -0.74%.

As for `CN1CCN(CCOC(=O)C(O)(c2ccccc2)c2ccccc2)CC1`, the activation was inactive: -1.1%.

For `CC(C)c1ccc(C(=O)NCC2(N3CCOCC3)CCCCC2)cc1`, the activation was inactive: 2.74%.

Consider `COc1ccc(NC2CCN(C(=O)OC(C)(C)C)CC2)cc1`, for which the activation was inactive: 0.671%.

With `CC(C)c1ccc(NC2CCN(C(=O)OC(C)(C)C)CC2)cc1`, the activation was inactive: 6.06%.

On to `COc1ccc(CN(CCCl)CCCl)cc1Cl`, for which the activation is inactive: 1.8%.

Turning to `CN(C)c1cccc(C(=O)NCC2(N3CCCCC3)CCCCC2)c1`, the activation was inactive: -1.08%.

As for `COc1cc(OC)c(C(=O)NCC2(N(C)C)CCCCC2)cc1OC`, the activation is inactive: 1.07%.

`O=C(NCC1(N2CCOCC2)CCCCC1)c1cc(F)c(F)cc1Cl`: the activation was inactive: 0.0927%.

Regarding `O=C(NCC1(N2CCCCC2)CCCCC1)c1cncc(Br)c1`, the activation is inactive: 1.82%.

With `CN1CCC(Nc2cccc(F)c2)CC1`, the activation is inactive: -0.868%.

On to `COc1ccc(C(=O)NCC2(N3CCCCC3)CCCCC2)cc1`, for which the activation is inactive: 1.75%.

`CC(C)(C)OC(=O)N1CCC(N(C(=O)c2ccccc2)c2ccc(F)cc2)CC1`: the activation is inactive: -1.41%.

In the case of `COc1ccc(C(=O)NCC2(N3CCCCC3)CCCCC2)c(OC)c1OC`, the activation was inactive: 1.96%.

Regarding `O=C(NCC1(N2CCCCC2)CCCCC1)c1ccc(=O)[nH]c1`, the activation is inactive: -2.05%.

Take `O=C(NCC1(N2CCCCC2)CCCCC1)c1cccs1`: the activation was inactive: 1.86%.

In the case of `CSc1ccccc1C(=O)NCC1(N2CCCCC2)CCCCC1`, the activation is inactive: 0.307%.

Turning to `O=C(NCC1(N2CCCCC2)CCCCC1)c1ccc(Cl)nc1`, the activation was inactive: 0.729%.

On to `Cc1cc(C)cc(N(C(=O)c2ccccc2)C2CCN(C(=O)OC(C)(C)C)CC2)c1`, for which the activation was inactive: -0.185%.

With `O=C(NCC1(N2CCOCC2)CCCCC1)c1cc2ccccc2o1`, the activation is inactive: 0.737%.

`O=C(OC1CN2CCC1CC2)C1c2ccccc2Oc2ccccc21` (configuration not stated): the activation was inactive: 2.57%.

On to `N#CC1(Nc2ccccc2)CCN(Cc2ccccc2)CC1`, for which the activation is inactive: 1.75%.

On to `O=C(NCC1(N2CCCCC2)CCCCC1)c1ccc(Cl)s1`, for which the activation was inactive: -0.916%.

With `COc1ccc(Cl)cc1C(=O)NCC1(N2CCOCC2)CCCCC1`, the activation was inactive: 0.491%.

In the case of `CCOC(=O)N1CCC(Nc2ccc(OC)cc2)CC1`, the activation was inactive: 2.86%.

In the case of `CCOc1ccc(C)cc1CN(CCCl)CCCl`, the activation is inactive: -0.894%.

For `O=C(NCC1(N2CCCCC2)CCCCC1)c1ccc(F)cc1`, the activation was inactive: -1.69%.

For the molecule `CCCCOc1ccc(C(=O)NCC2(N3CCOCC3)CCCCC2)cc1`, the activation was inactive: -0.378%.

Regarding `COc1ccc(NC2CCN(CCc3ccccc3)CC2)c(OC)c1`, the activation is inactive: -0.416%.

Take `CCOC(=O)N1CCC(Nc2ccc(F)cc2)CC1`: the activation was inactive: -0.485%.

Take `CCOC(=O)N1CCC(Nc2cccc(C)c2)CC1`: the activation is inactive: 0.681%.

In the case of `Cc1ccc(OCC(C)C)c(CN(CCCl)CCCl)c1`, the activation is inactive: 5.7%.

In the case of `COc1cc(OC)cc(C(=O)NCC2(N3CCCCC3)CCCCC2)c1`, the activation was inactive: -2.32%.

Take `Cc1ccc(C(=O)NCC2(N3CCCCC3)CCCCC2)o1`: the activation is inactive: 0.53%.

For `Fc1ccccc1NC1CCN(Cc2ccccc2)CC1`, the activation is inactive: -1.9%.

On to `CCN1CCC(Nc2cccc(F)c2)CC1`, for which the activation was inactive: -1.1%.

On to `O=C(NCC1(N2CCCCC2)CCCCC1)c1ccco1`, for which the activation was inactive: -1.81%.

As for `CN(C)c1ccc(C(=O)NCC2(N3CCCCC3)CCCCC2)cc1`, the activation was inactive: 5.07%.

For `CCOc1ncccc1C(=O)NCC1(N2CCOCC2)CCCCC1`, the activation was inactive: -1.79%.

On to `CN1CCC(Nc2ccc(F)c(Cl)c2)CC1`, for which the activation is inactive: 1.51%.

As to `CC(C)(C)OC(=O)N1CCC(Nc2ccccc2)CC1`, the activation is inactive: 1.14%.

As for `O=C(O)C1(Nc2ccccc2)CCN(Cc2ccccc2)CC1`, the activation was inactive: -0.415%.

For the molecule `CCCOc1ccc(C(=O)NCC2(N(C)C)CCCCC2)cc1`, the activation is inactive: 1.91%.

Regarding `COc1cc(OC)cc(C(=O)NCC2(N3CCOCC3)CCCCC2)c1`, the activation was inactive: -0.288%.

With `COc1cccc(C(=O)N(c2cc(C)cc(C)c2)C2CCN(C(=O)OC(C)(C)C)CC2)c1`, the activation was inactive: 1.34%.

With `CCC(CO)(C(=O)OC1CN2CCC1CC2)c1ccccc1` (configuration not stated), the activation was inactive: 0.724%.

On to `CN1CCC(Nc2ccc(Cl)cc2)CC1`, for which the activation is inactive: -1.07%.

Turning to `CCCOc1ccc(C)cc1CN(CCCl)CCCl`, the activation is inactive: 0.0502%.

For `COc1cc(C(=O)NCC2(N3CCOCC3)CCCCC2)cc(OC)c1C`, the activation was inactive: 0.446%.

For the molecule `O=C(NCC1(N2CCOCC2)CCCCC1)c1cc(Br)ccc1Cl`, the activation is inactive: -1.53%.

Regarding `COc1ccc(C(=O)NCC2(N3CCOCC3)CCCCC2)cc1OC`, the activation is inactive: 0.257%.

Take `CCOC(=O)N1CCC(Nc2ccc(C)cc2)CC1`: the activation is inactive: 3.45%.

For `N/C(=N\O)c1c(N)no[n+]1[O-]`, the activation was inactive: 1.32%.

For the molecule `O=C(OC1CN2CCC1CC2)C1c2ccccc2C=Cc2ccccc21` (configuration not stated), the activation is inactive: -1.02%.

Turning to `CCc1cc(C(=O)NCC2(N3CCCCC3)CCCCC2)sc1C`, the activation was inactive: 0.543%.

Consider `N#Cc1ccc(C(=O)NCC2(N3CCCCC3)CCCCC2)cc1`, for which the activation was inactive: 0.664%.

As to `CC(C)(C)OC(=O)N1CCC(N(C(=O)c2ccccc2)c2ccc(Cl)cc2)CC1`, the activation is inactive: -0.0334%.

As for `CN(C)C1(CNC(=O)c2cccc(C#N)c2)CCCCC1`, the activation is inactive: 0.157%.

In the case of `c1ccc(CN2CCC(Nc3ccccc3)CC2)cc1`, the activation is inactive: -0.369%.

As to `CCCN1CCC(Nc2cc(OC)cc(OC)c2)CC1`, the activation was inactive: 1.44%.
